The target of this assay is Kappa-type opioid receptor (Homo sapiens, UniProt P41145). The experiment in a line: ASSAY_NAME: ChEMBL_1871643 (CHEMBL4372810) DESCRIPTION: Agonist activity at Tango-KOR (unknown origin) expressed in HTLA cells harboring TEV-fused-beta-arrestin 2 assessed as increase in beta arrestin 2 recruitment after overnight incubation by BrightGlo reagent based assay.

The chains behind the UniProt entries cited, without tags or fusion partners.
UniProt P41145, whole entry: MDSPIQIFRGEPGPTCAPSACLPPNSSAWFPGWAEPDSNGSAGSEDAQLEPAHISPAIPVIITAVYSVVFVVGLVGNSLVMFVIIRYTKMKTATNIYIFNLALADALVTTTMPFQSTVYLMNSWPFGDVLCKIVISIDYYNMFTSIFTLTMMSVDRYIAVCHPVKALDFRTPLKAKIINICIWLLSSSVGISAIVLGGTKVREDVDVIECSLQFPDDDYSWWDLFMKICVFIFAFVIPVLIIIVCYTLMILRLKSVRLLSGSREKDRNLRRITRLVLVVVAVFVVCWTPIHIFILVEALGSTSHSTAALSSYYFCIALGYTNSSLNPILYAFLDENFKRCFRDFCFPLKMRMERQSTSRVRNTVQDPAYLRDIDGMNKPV

In the case of `O=C(Cc1ccc(Cl)c(Cl)c1)N1CCN[C@H]2CCC[C@H](N3CCCC3)[C@H]21`, the EC50 (as a rule, the concentration at which the effect is half-maximal) worked out at 3.8 nM.

The record behind these values is BindingDB's records for 30543421, “Development of Novel Quinoxaline-Based κ-Opioid Receptor Agonists for the Treatment of Neuroinflammation” (2019).
